# Experimental data taken from patent publication US11311540B2, “Increasing expression of interferon regulated genes with combinations of histone deacetylase inhibitors and immunomodulatory drugs” (ACETYLON PHARMACEUTICALS, INC., priority 2016, dated 2022).
# Test system: H929
# Experiment: Expression profiling with Affymetrix PRIMEVIEW microarrays, number of differentially regulated genes
# Type: cell-based, human
# Procedure: The design of this experiment consisted of administering increasing doses of Compound A (0, 2, 3, 4 μM) in the presence or absence of a constant amount of pomalidomide (1 μM) and measuring changes in gene expression over time (up to 48 hours after cell treatment) using Affymetrix PRIMEVIEW™ chips (Affymetrix; Santa Clara, Calif.). The chip comprises a human gene expression array having more than 530,000 probes covering more than 36,000 transcripts and variants, which represent more than 20,000 genes mapped through RefSeq or via UniGene annotation. […] In the table, “A” indicates Compound A, and “Pom” indicates pomalidomide.
smiles,measurement,setting,value
"O=C(CCCCCCNC(=O)c1cnc(N(c2ccccc2)c2ccccc2)nc1)NO [Compound A, 2-(diphenylamino)-N-(7-(hydroxyamino)-7-oxoheptyl)pyrimidine-5-carboxamide]",number of genes with fold expression changes greater than 2 relative to vehicle: Down,"Compound A 2 μM, 24 h",506
same,number of genes with fold expression changes greater than 2 relative to vehicle: Total,"Compound A 2 μM, 24 h",826
same,number of genes with fold expression changes greater than 2 relative to vehicle: Up,"Compound A 2 μM, 24 h",320
same,number of genes with fold expression changes greater than 2 relative to vehicle: Down,"Compound A 2 μM, 48 h",139
same,number of genes with fold expression changes greater than 2 relative to vehicle: Total,"Compound A 2 μM, 48 h",504
same,number of genes with fold expression changes greater than 2 relative to vehicle: Up,"Compound A 2 μM, 48 h",365
same,number of genes with fold expression changes greater than 2 relative to vehicle: Down,"Compound A 3 μM, 24 h",883
same,number of genes with fold expression changes greater than 2 relative to vehicle: Total,"Compound A 3 μM, 24 h",1745
same,number of genes with fold expression changes greater than 2 relative to vehicle: Up,"Compound A 3 μM, 24 h",862
same,number of genes with fold expression changes greater than 2 relative to vehicle: Down,"Compound A 3 μM, 48 h",853
same,number of genes with fold expression changes greater than 2 relative to vehicle: Total,"Compound A 3 μM, 48 h",1317
same,number of genes with fold expression changes greater than 2 relative to vehicle: Up,"Compound A 3 μM, 48 h",464
same,number of genes with fold expression changes greater than 2 relative to vehicle: Down,"Compound A 4 μM, 24 h",1635
same,number of genes with fold expression changes greater than 2 relative to vehicle: Total,"Compound A 4 μM, 24 h",2645
same,number of genes with fold expression changes greater than 2 relative to vehicle: Up,"Compound A 4 μM, 24 h",1010
same,number of genes with fold expression changes greater than 2 relative to vehicle: Down,"Compound A 4 μM, 48 h",341
same,number of genes with fold expression changes greater than 2 relative to vehicle: Total,"Compound A 4 μM, 48 h",666
same,number of genes with fold expression changes greater than 2 relative to vehicle: Up,"Compound A 4 μM, 48 h",325
